In BindingDB's records for doi:10.1016/j.ejmech.2017.05.035 (Universidade Estadual De Feira De Santana, 2017) one finds EC50 data, which are given here for one compound.

The nature of the assay: Antagonist activity at Adenosine receptor subtype 2B in human RBC assessed as change in erythrocyte morphology incubated for 3 hrs with occasional gentle stirring for every 30 min measured for every 12 hrs by microscopic analysis.

The term EC50 denotes the concentration at which the effect is half-maximal. As for `CCCn1c(=O)c2[nH]c(-c3ccc(OCC(=O)Nc4ccc(C#N)cc4)cc3)nc2n(CCC)c1=O`, the EC50 is 23 nM.
